Test results reported in patent publication US20250009852A1, “DEPLETING EGFR AND HER2 OVERCOMES RESISTANCE TO EGFR INHIBITORS IN COLORECTAL CANCER” (Health Research, Inc., priority 2021, published 2025).

Columns and labels:
HCT116 tumors = experiment: Subcutaneous HCT116 tumors in SCID mice; format: in vivo, mouse; conditions: sc HCT116 tumors; EP plus PEPD^G278D 4 mg/kg ip three times weekly, or cetuximab 15 mg/kg ip twice weekly
Protocol: (§1) SCID mice (C.B.17 SCID) were bred by the Laboratory Animal Shared Resource at Roswell Park Comprehensive Cancer Center. Male mice at 7-8 weeks of age were used. All mouse experiments were approved by the Institutional Animal Care and Use Committee at Roswell Park Comprehensive Cancer Center under protocol 1022M. We established subcutaneous tumors by inoculating 1×10^6 HCT116 cells, 4×10^6 HT29 cells, or 2×10^6 SW48 cells to the flank of each mouse in 100 μl of serum free medium. Colon patient-derived xenograft (PDX) 14650 was established from a liver metastatic lesion in a patient treated at Roswell Park Comprehensive Cancer Center. Tumor fragments (˜20 mm^3) from donor mice were implanted into the flank of each mouse subcutaneously using a trocar. […] Subcutaneous tumor volume was measured using length ×width^2÷2. Tumor volume was measured three times each week. Orthotopic tumor growth was monitored by bioluminescence weekly. Mice were given D-luciferin (150 mg/kg) by ip and anesthetized with isoflurane, and tumor burden was measured by bioluminescence using the IVIS Spectrum In Vivo Imaging System (PerkinElmer). Drug treatment was started when significant tumor growth was detected. […] The mice were closely monitored for sign of adverse effects and weighed three times each week. […]

EGFR and HER2 = experiment: Western blotting of tumor homogenates: EGFR and HER2; format: in vivo, mouse; conditions: 24 h after the final dose
Protocol: (§2) To prepare whole cell lysates, cells were washed with PBS twice, mixed with 1× cell lysis buffer from Cell Signaling Technology supplemented with 2 mM PMSF and a protease inhibitor cocktail from Roche Applied Science, placed on ice for 10 min, sonicated at 0-4° C. to enhance cell lysis using a Branson Model 450 sonifier, and finally centrifuged at 13,000 g for 10 min at 4° C., and the supernatant fraction is collected as whole cell lysate. […]
(§3) Protein concentrations in all samples were measured using the BCA Assay Kit. […] Proteins were transferred to polyvinylidene fluoride membrane, probed with specific antibodies, and detected using either Luminata Classico (Millipore) or Luminata Cresendo (Millipore). […] The beads were washed three times with IP buffer, suspended in 2× SDS loading buffer, boiled for 5 min, and analyzed by Western blotting.
(§4) SCID mice (C.B.17 SCID) were bred by the Laboratory Animal Shared Resource at Roswell Park Comprehensive Cancer Center. […] Subcutaneous tumor volume was measured using length ×width^2÷2. Tumor volume was measured three times each week. Orthotopic tumor growth was monitored by bioluminescence weekly. Mice were given D-luciferin (150 mg/kg) by ip and anesthetized with isoflurane, and tumor burden was measured by bioluminescence using the IVIS Spectrum In Vivo Imaging System (PerkinElmer). Drug treatment was started when significant tumor growth was detected. […]

SW620 cells = experiment: MTT cell proliferation assay; format: cell-based, human; conditions: SW620 cells (no EGFR, no HER2); 24, 48 or 72 h
Protocol: (§5) Cells were grown in 96-well plates. […] The cells were then washed with PBS and mixed with dimethyl sulfoxide (150 μl per well), and cell density was determined by measuring the reduction of MTT to formazan spectroscopically at 570 nm using a Synergy 2 Multi-Mode Microplate Reader (BioTek). In experiments involving siRNA transfection, 2×10^3 HCT116 cells or 6×10^3 HT29 cells were seeded to each well of 96-well plates overnight and then transfected 25 nM siRNA (scramble siRNA, EGFR siRNA or HER2 siRNA) as described above, followed by MTT assay.

SW48 cells = experiment: MTT cell proliferation assay; format: cell-based, human; conditions: 24, 48 or 72 h, PEPD^G278D 5-250 nM, cetuximab 2.75-275 nM, panitumumab 2.77-277 nM
Protocol: as §5

[1] = system: HER3, IGF1R, MET, SRC, AKT, ERK, MEK, NRAS, HRAS, caspase 3; experiment: Western blotting of tumor homogenates: other signaling proteins; format: in vivo, mouse; conditions: SW48 tumors, 24 h after the final dose
Protocol: as §2, §3, §4

SW48 tumors = experiment: Subcutaneous SW48 tumors in SCID mice; format: in vivo, mouse; conditions: sc SW48 tumors; EP 0.5 mg/kg ip daily plus PEPD^G278D 4 mg/kg ip three times weekly, or cetuximab 15 mg/kg ip twice weekly
Protocol: as §1

HT29 tumors = experiment: Subcutaneous HT29 tumors in SCID mice; format: in vivo, mouse; conditions: sc HT29 tumors; EP plus PEPD^G278D 4 mg/kg ip three times weekly, or cetuximab 15 mg/kg ip twice weekly
Protocol: as §1

[2] = system: HER3, MET, IGF1R, SRC, AKT, ERK, MEK; experiment: Western blotting of whole cell lysates: other RTKs and downstream signaling proteins; format: cell-based, human; conditions: 48 h
Protocol: To prepare whole cell lysates, cells were washed with PBS twice, mixed with 1× cell lysis buffer from Cell Signaling Technology supplemented with 2 mM PMSF and a protease inhibitor cocktail from Roche Applied Science, placed on ice for 10 min, sonicated at 0-4° C. to enhance cell lysis using a Branson Model 450 sonifier, and finally centrifuged at 13,000 g for 10 min at 4° C., and the supernatant fraction is collected as whole cell lysate. Tumor and samples were mixed with RIPA buffer (25 mM Tris-HCl, PH7.6, 150 mM NaCl, 1% Nonidet P-40, 1% sodium deoxycholate, and 0.1% SDS), which was supplemented with 2 mM PMSF, the protease inhibitor cocktail mentioned above, phosphatase inhibitor cocktail 2 and phosphatase inhibitor cocktail 3 from Sigma-Aldrich at 14.3 μl buffer per mg tissue, and homogenized in a Dounce homogenizer. The homogenates were cleared by centrifugation at 13,000 g for 15 min at 4° C.
Protein concentrations in all samples were measured using the BCA Assay Kit. For Western blotting, each sample was mixed with 4× loading dye, heated for 5 min at 95° C., and resolved by SDS-PAGE (8-12.5%). Proteins were transferred to polyvinylidene fluoride membrane, probed with specific antibodies, and detected using either Luminata Classico (Millipore) or Luminata Cresendo (Millipore). For IP, cell lysates (0.5 mg protein/sample) were incubated with a desired antibody overnight at 4° C., followed by incubation of 500 μl sample with 30 μl G-Sepharose beads (2 mg/ml) for 1 h at RT. The beads were washed three times with IP buffer, suspended in 2× SDS loading buffer, boiled for 5 min, and analyzed by Western blotting.

cetuximab [reference compound]
tumor growth (HCT116 tumors): neither agent inhibited the growth
effect on EGFR, HER2 and ERK in tumors (EGFR and HER2; HCT116 and HT29 tumors): neither PEPD^G278D nor cetuximab had any effect
expression and phosphorylation of EGFR and HER2 in tumors (EGFR and HER2; SW48 tumors): only decreased the expression and phosphorylation of EGFR
cell growth measured by MTT assay (SW620 cells): inactive
cell growth measured by MTT assay (SW48 cells): inhibited the growth of SW48 cells in a time- and concentration-dependent manner
ERK phosphorylation in tumors [1]: decreased ERK phosphorylation
inhibition of tumor growth at the end of treatment (SW48 tumors): 85.8%
tumor growth (HT29 tumors): neither agent inhibited the growth
effect on MET and ERK ([2]; HCT116, HT29 and SW620 cells, 275-277 nM): neither cetuximab nor panitumumab had any effect
effect on any of the signaling proteins ([2]; HCT116 and HT29 cells, 275 nM): no effect
effect on HER3 and IGF1R ([2]; SW48 cells, 275 nM): no effect
